How the values were obtained:
[1] = test system: TF-1 cells; details: stated as known, background knowledge; cited from earlier work
[2] = test system: TF-1 cells; experiment: Differential response of TF-1 cells against stimuli and controls at one, two and five minutes (FIG. 9B); format: cell-based; details: two and five minutes after stimulation, factor 100:1 dilution in d-PBS, 25 microliter into approximately 200 microliters cell suspension
Text: In this set of experiments, the monitoring system as shown in FIG. 8 was used to directly compare the activity of a known modification of the extra-cellular environment to controls. In the monitoring system of FIG. 8, two sample chambers (formed a fluid channels) 800a and 800b, along with four ports 801a-d, were fabricated using micromachining techniques on an acrylic substrate. The dimensions of the channels were approximately 250 micrometers wide, 100 micrometers deep, and with a total length of approximately 1.5 centimeters. The substrate was fastened in a water-tight manner, using thin film epoxy, to a pre-fabricated printed circuit board (not explicitly shown), on which eight gold-plated copper conductive traces 820a-d and 830a-d of width approximately 250 micrometers were deposited. […]
FIG. 9B illustrates a second set of experiments, in which the differential responses of a population of TF-1 cells against numerous stimuli and controls are shown at one minute, two minutes, and five minutes after stimulation. […] One of the two fractions received a potential stimulus, and the other a control in the form of a quantity of pure Dulbecco's phosphate buffered saline (d-PBS)equal to the quantity of d-PBS which contained the stimulant. […]

Question: Which “known activity against TF-1 cells” value [1] does the source give for IL-2: interleukin tested on TF-1 cells here?
Answer: known not to have any significant activities against TF-1 cells

B1: IL3: interleukin tested on TF-1 cells (protein, UniProt P08700 20-152, looked up)
Interleukin-3: APMTQTTPLKTSWVNCSNMIDEIITHLKQPPLPLLDFNNLNGEDQDILMENNLRRPNLEAFNRAVKSLQNASAIESILKNLLPCLPLATAAPTRHPIHIKDGDWNEFRRKLTFYLKTLENAQAQQTTLSLAIF
Question: Which “differential response over the three controls” value [2] does the source give for B1 here?
Answer: significantly larger differential response over the three controls
